The chains behind the UniProt entries cited, without tags or fusion partners. Where a name states a change or a piece, a line headed by the entry shows the natural chain unless it says otherwise.
UniProt Q15303, whole entry, looked up: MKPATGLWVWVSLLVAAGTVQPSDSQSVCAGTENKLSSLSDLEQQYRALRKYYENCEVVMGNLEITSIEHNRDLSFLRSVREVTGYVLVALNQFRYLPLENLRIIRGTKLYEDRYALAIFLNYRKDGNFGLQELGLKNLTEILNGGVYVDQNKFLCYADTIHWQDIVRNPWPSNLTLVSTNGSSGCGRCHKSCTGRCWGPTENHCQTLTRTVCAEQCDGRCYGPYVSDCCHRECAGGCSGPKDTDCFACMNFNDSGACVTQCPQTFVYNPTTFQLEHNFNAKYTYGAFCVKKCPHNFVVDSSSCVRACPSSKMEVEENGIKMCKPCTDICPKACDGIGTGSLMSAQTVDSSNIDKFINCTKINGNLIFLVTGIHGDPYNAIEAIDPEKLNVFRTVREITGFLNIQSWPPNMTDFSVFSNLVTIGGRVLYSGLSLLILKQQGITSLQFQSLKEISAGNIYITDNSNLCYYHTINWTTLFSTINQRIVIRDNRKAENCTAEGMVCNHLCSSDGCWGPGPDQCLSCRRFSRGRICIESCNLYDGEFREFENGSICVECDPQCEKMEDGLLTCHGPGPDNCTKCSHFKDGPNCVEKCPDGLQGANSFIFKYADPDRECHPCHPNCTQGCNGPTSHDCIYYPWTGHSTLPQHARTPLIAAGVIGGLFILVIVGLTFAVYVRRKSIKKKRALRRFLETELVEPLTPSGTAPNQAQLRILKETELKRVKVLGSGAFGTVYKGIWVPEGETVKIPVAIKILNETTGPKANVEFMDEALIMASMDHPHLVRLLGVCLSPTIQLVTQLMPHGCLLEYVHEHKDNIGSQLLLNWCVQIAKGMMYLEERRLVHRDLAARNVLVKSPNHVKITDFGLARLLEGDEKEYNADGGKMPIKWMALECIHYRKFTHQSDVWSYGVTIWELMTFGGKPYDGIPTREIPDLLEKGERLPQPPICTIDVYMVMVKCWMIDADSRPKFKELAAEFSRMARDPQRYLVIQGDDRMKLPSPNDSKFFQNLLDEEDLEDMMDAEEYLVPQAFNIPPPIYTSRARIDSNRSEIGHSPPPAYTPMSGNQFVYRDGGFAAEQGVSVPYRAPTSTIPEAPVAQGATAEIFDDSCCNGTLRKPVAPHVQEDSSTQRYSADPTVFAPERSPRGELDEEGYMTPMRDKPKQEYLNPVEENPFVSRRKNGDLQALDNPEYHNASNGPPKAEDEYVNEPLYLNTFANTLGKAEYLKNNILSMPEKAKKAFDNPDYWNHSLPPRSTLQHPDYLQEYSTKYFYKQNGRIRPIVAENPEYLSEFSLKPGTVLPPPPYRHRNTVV
UniProt Q9UPE1, whole entry, looked up: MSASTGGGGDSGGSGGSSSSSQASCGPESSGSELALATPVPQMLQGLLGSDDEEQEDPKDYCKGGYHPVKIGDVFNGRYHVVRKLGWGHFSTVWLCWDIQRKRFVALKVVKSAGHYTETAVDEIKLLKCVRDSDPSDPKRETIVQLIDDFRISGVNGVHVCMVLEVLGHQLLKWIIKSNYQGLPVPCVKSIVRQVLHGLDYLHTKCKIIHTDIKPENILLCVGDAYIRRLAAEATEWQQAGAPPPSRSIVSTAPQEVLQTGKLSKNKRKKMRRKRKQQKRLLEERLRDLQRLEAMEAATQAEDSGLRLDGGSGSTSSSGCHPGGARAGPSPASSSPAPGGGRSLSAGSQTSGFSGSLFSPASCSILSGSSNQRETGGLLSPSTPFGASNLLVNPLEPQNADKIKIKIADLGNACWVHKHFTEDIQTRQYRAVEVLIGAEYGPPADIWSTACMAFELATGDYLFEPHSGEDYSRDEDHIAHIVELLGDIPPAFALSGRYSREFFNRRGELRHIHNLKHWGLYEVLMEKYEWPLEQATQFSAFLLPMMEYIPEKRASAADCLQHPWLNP
UniProt O15530: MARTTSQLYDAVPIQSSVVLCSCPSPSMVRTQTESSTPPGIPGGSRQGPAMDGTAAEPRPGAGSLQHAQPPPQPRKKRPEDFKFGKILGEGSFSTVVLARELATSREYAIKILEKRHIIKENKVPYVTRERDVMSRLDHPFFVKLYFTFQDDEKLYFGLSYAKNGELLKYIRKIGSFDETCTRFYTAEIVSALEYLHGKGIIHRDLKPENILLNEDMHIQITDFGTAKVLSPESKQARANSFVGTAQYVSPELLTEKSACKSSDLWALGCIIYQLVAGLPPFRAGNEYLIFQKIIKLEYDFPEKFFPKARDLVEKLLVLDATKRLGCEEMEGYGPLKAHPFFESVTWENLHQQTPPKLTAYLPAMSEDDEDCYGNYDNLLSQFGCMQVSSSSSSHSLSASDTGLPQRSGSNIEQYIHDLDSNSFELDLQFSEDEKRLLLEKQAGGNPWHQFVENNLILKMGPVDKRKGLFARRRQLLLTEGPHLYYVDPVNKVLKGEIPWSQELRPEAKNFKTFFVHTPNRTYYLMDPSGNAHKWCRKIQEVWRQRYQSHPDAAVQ
UniProt P08631: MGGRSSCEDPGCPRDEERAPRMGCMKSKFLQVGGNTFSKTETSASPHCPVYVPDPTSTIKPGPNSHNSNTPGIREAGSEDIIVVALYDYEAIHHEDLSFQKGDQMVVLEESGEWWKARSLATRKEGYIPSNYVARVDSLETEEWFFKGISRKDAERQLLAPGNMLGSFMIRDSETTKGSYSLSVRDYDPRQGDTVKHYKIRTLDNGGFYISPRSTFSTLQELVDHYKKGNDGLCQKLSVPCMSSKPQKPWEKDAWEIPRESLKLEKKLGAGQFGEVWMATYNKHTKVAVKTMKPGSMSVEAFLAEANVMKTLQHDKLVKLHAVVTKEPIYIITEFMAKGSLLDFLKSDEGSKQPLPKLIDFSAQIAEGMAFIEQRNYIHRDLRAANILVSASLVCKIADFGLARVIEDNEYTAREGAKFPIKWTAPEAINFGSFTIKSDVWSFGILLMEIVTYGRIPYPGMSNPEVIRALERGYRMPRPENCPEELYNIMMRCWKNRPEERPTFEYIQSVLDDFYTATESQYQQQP
UniProt Q9HBY8: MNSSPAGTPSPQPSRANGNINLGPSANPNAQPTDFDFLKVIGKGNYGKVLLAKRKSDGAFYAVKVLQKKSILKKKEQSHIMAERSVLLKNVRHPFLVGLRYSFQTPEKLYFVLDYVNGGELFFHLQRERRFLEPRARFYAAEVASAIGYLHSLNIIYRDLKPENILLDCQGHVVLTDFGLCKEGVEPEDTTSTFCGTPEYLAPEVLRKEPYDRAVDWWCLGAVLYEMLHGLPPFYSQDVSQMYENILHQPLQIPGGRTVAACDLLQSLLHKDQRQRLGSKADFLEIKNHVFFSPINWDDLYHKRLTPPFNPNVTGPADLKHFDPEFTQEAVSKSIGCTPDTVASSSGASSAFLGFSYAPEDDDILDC
UniProt P33981: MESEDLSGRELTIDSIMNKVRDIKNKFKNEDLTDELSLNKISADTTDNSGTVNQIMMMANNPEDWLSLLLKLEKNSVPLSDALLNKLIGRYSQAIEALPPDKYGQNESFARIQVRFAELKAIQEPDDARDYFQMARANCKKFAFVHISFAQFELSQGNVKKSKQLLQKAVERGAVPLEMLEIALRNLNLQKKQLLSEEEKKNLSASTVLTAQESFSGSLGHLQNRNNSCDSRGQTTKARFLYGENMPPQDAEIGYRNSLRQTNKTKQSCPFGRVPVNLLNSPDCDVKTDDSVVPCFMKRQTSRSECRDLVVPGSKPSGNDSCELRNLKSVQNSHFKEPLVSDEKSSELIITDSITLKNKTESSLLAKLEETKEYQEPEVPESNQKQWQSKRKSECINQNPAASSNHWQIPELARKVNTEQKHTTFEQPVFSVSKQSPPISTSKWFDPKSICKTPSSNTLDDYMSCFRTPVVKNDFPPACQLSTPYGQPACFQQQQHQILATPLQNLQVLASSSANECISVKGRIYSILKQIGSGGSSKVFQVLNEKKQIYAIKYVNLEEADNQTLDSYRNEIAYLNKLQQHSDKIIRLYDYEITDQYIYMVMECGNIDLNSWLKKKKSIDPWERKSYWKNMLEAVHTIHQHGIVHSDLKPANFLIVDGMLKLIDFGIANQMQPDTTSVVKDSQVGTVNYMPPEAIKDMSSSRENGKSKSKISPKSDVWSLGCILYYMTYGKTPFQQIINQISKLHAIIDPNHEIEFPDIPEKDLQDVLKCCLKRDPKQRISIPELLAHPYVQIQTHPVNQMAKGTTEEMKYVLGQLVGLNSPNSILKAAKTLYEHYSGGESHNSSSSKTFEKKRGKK
UniProt Q06418: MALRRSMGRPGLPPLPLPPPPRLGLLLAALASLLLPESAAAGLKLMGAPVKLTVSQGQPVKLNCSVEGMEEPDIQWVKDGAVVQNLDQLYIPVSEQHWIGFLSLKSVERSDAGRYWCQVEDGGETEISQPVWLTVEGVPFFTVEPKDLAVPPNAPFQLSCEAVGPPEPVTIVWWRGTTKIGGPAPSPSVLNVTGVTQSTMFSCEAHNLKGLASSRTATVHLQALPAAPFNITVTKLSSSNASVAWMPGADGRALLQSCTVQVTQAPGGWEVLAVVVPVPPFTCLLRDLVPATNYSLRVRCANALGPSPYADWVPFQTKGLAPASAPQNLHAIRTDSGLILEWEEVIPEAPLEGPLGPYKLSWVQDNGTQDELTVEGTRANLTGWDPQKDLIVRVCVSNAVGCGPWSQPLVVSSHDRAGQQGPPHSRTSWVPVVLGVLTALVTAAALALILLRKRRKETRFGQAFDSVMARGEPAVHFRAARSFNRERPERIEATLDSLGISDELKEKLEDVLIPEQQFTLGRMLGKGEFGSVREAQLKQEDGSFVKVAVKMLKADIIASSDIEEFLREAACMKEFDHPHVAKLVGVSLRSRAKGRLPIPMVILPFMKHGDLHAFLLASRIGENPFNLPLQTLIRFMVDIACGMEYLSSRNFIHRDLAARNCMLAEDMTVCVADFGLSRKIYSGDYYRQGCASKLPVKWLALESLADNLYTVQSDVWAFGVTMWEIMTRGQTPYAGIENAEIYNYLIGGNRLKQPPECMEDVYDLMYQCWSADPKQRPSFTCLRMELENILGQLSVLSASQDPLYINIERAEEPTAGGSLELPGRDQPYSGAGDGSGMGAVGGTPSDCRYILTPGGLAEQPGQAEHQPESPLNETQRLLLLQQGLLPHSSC
UniProt Q02763: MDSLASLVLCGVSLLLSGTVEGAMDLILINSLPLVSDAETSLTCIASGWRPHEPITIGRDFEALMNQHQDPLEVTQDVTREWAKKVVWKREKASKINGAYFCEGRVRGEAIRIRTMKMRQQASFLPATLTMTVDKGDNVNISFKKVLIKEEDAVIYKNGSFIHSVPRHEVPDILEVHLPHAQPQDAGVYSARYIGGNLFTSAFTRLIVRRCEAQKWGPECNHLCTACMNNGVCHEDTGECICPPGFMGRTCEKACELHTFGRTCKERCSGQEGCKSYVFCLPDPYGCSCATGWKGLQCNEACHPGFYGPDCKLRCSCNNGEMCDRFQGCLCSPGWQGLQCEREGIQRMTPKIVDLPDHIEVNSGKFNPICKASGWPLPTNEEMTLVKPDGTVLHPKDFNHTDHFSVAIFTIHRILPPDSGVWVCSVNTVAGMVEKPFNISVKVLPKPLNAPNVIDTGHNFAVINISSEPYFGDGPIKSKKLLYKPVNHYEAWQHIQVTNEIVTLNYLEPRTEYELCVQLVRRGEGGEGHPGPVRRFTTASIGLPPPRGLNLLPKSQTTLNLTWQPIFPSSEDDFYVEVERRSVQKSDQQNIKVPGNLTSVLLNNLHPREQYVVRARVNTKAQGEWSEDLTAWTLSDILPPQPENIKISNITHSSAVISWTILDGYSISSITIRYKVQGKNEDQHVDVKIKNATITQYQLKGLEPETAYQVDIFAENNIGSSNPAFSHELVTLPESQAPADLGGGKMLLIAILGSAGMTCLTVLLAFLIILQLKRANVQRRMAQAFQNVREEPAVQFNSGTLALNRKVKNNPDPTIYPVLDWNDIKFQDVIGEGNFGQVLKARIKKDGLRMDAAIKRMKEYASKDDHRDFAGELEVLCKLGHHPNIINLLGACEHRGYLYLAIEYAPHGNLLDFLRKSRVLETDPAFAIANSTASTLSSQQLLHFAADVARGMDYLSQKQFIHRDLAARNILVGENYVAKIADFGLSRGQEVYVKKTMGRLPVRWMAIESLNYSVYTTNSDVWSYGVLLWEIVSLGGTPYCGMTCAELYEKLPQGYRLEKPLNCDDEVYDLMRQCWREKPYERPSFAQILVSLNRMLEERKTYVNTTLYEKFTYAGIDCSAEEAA
UniProt P19784, whole entry, looked up: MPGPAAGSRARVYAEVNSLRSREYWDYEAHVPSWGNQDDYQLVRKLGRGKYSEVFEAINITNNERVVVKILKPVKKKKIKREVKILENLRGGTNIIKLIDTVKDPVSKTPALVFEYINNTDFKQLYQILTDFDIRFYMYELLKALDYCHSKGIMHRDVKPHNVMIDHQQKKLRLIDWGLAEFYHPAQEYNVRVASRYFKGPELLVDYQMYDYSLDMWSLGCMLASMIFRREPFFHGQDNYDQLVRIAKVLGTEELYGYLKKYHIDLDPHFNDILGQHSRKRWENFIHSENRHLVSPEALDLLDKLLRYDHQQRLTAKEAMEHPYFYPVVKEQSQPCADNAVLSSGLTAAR

According to the kinase profiling compilation of Christmann-Franck et al. (2016):

Assays:
Experiment in all cases: radiometric filter-binding kinase assay, Kinase HotSpot
Conditions in all cases: compound 0.5 µM; ATP 10 µM
[1] = target: MAPK1 (human) (UniProt P28482)
[2] = target: ERBB4 (human) (UniProt Q15303)
[3] = target: CSNK1A1 (human) (UniProt P48729)
[4] = target: FGR (human) (UniProt P09769)
[5] = target: MARK1 (human) (UniProt Q9P0L2)
[6] = target: STK3 (human) (UniProt Q13188)
[7] = target: INSR (human) (UniProt P06213)
[8] = target: CAMK1D (human) (UniProt Q8IU85)
[9] = target: MAPK9 (human) (UniProt P45984)
[10] = target: NEK3 (human) (UniProt P51956)
[11] = target: RPS6KA2 KD1 KD2 (human) (UniProt Q15349)
[12] = target: SRPK3 (human) (UniProt Q9UPE1)
[13] = target: IRAK4 (human) (UniProt Q9NWZ3)
[14] = target: MAPK10 (human) (UniProt P53779)
[15] = target: PKN1 (human) (UniProt Q16512)
[16] = target: INSRR (human) (UniProt P14616)
[17] = target: CLK1 (human) (UniProt P49759)
[18] = target: PDPK1 (human) (UniProt O15530)
[19] = target: HCK (human) (UniProt P08631)
[20] = target: FLT3 (human) (UniProt P36888)
[21] = target: SGK2 (human) (UniProt Q9HBY8)
[22] = target: TTK (human) (UniProt P33981)
[23] = target: PRKX (human) (UniProt P51817)
[24] = target: ROCK2 (human) (UniProt O75116)
[25] = target: STK17A (human) (UniProt Q9UEE5)
[26] = target: MST1R (human) (UniProt Q04912)
[27] = target: HIPK1 (human) (UniProt Q86Z02)
[28] = target: TYRO3 (human) (UniProt Q06418)
[29] = target: ACVR1 (human) (UniProt Q04771)
[30] = target: AURKB (human) (UniProt Q96GD4)
[31] = target: RPS6KA4 KD2 (human) (UniProt O75676)
[32] = target: NUAK2 (human) (UniProt Q9H093)
[33] = target: MAP3K3 (human) (UniProt Q99759)
[34] = target: TAOK1 (human) (UniProt Q7L7X3)
[35] = target: MAP2K1 (human) (UniProt Q02750)
[36] = target: ITK (human) (UniProt Q08881)
[37] = target: TEK (human) (UniProt Q02763)
[38] = target: MET (human) (UniProt P08581)
[39] = target: PIM1 (human) (UniProt P11309)
[40] = target: MYO3B (human) (UniProt Q8WXR4)
[41] = target: CSNK2A2 (human) (UniProt P19784)
[42] = target: BTK (human) (UniProt Q06187)

Which residual activity [1] does the source give for `O=C1Nc2ccc3ncsc3c2/C1=C/c1c[nH]cn1` here?
The residual activity was 28.8%.

What about the residual activity [2] of the same compound?
Its residual activity is 94.8%.

What about the residual activity [3] of the same compound?
The residual activity was 67.6%.

What about the residual activity [4] of the same compound?
Its residual activity is 62.8%.

What about the residual activity [5] of the same compound?
The residual activity was 20%.

And the residual activity [6]?
Its residual activity is 3.37%.

And the residual activity [7]?
The residual activity was 93.3%.

What about the residual activity [8] of the same compound?
Its residual activity is 117%.

And the residual activity [9]?
The residual activity was 45.8%.

And the residual activity [10]?
The residual activity was 80.2%.

And the residual activity [11]?
Its residual activity is 7.84%.

What about the residual activity [12] of the same compound?
Its residual activity is 90.2%.

And the residual activity [13]?
Its residual activity is 59.5%.

What about the residual activity [14] of the same compound?
Its residual activity is 117%.

And the residual activity [15]?
Its residual activity is 22%.

And the residual activity [16]?
Its residual activity is 100%.

What about the residual activity [17] of the same compound?
Its residual activity is 19.9%.

And the residual activity [18]?
Its residual activity is 76.7%.

What about the residual activity [19] of the same compound?
Its residual activity is 73.9%.

And the residual activity [20]?
Its residual activity is 2.82%.

And the residual activity [21]?
Its residual activity is 25%.

And the residual activity [22]?
The residual activity was 31.1%.

What about the residual activity [23] of the same compound?
The residual activity was 28.2%.

And the residual activity [24]?
Its residual activity is 11.7%.

And the residual activity [25]?
The residual activity was 6.82%.

And the residual activity [26]?
Its residual activity is 70.2%.

And the residual activity [27]?
The residual activity was 103%.

And the residual activity [28]?
The residual activity was 84.1%.

And the residual activity [29]?
The residual activity was 144%.

What about the residual activity [30] of the same compound?
The residual activity was 11.1%.

And the residual activity [31]?
Its residual activity is 28%.

And the residual activity [32]?
The residual activity was 41.2%.

What about the residual activity [33] of the same compound?
Its residual activity is 82.5%.

What about the residual activity [34] of the same compound?
The residual activity was 37.5%.

What about the residual activity [35] of the same compound?
The residual activity was 87.2%.

What about the residual activity [36] of the same compound?
Its residual activity is 80.9%.

And the residual activity [37]?
Its residual activity is 90.6%.

And the residual activity [38]?
Its residual activity is 74.4%.

What about the residual activity [39] of the same compound?
The residual activity was 28.2%.

What about the residual activity [40] of the same compound?
The residual activity was 30.9%.

And the residual activity [41]?
Its residual activity is 22%.

And the residual activity [42]?
Its residual activity is 85.2%.
